Consider one substance from patent US7704701B2, “Diagnosis of prostate cancer with SPAS-1 cancer antigen” (The Regents of the University of California, priority 2000, dated 2010).

The test system of this assay is TRAMP-C2. Nature of the assay: Adoptive transfer of TRAMP-specific T cells into mice bearing TRAMP-C2. The class given is in vivo, C57BL6 mice. To be noted: during the two weeks of treatment; IL-2 daily day 0 to day 14. The protocol: On day 0, C57BL6 mice were injected subcutaneously with 4×10^6 TRAMP-C2 CD8^+ T cells. On day 0 and 14 the mice received 2×10^6 TRAMP-specific T cells in PBS or PBS alone intravenously. In order to provide a source of T cell help to the TRAMP-specific CD8^+ T cells the mice were injected daily from day 0 to day 14 with 10000 U of recombinant human IL-2 in PBS subcutaneously.

On to IL-2: recombinant human IL-2, for which the “mice remaining tumor free” value came to 60%.
